## Measured affinities in a library of Ab-14 light chain variants

From the AlphaSeq antibody data of Li et al. 2023 (doi:10.1038/s41467-023-39022-2), copy in the FLAb collection.

Target: peptide PDVDLGDISGINAS, taken from heptad repeat 2 (HR2) of SARS-CoV-2 spike.

Each scFv is VH, a (GGGGS)3 linker, VL, as in the parent Ab-14, and differs from it in the CDRs of the light chain only.
VH: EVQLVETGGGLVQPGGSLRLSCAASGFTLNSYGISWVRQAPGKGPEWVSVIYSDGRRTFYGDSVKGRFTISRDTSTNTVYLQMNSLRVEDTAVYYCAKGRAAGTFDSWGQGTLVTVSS
VL: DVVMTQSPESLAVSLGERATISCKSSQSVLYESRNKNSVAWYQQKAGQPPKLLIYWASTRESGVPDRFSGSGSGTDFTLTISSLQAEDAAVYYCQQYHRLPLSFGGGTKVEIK

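Phage display of a naive human antibody library on the peptide gave the parent. These sequences belong to a second round, designed from the earlier measurements on random variants of the parent. Group labels follow the data file (Ctrl: baseline library sampled from a position-specific scoring matrix, with some repeated check sequences; GP: Gaussian process model; HC: hill climbing; Gen: genetic algorithm; Gibbs: Gibbs sampling; a sequence that several methods proposed may carry one label only). The assay is AlphaSeq: two haploid yeast populations carry antibody and antigen on their surface. Binding brings cells together so that they mate, and sequencing counts the barcode pairs among the diploids. A regression on co-assayed BCL2-family reference pairs converts the normalised counts of each replicate to an apparent Kd. Mating was done six times.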

Each variant is given by its three light chain CDRs, as the data file delimits them; those of the parent are KSSQSVLYESRNKNSVA, WASTRES, QQYHRLPLS. Variants here have at most six changes. Numbers give log10(Kd / nM), so 0 is 1 nM and 3 is 1 µM. Smaller is tighter. Averages over replicates are reported, and they cover detected replicates only. "nd" marks a missing value. The strain was present, yet no cells mated with the target were sequenced in any replicate, which points to weak or no binding. The authors averaged sequences with at least three values out of six and counted those with two or fewer as poor binders. Three control strains display no target. For all light chain designs, 4% of the pairings with them gave a signal, with a median of 2.64 and one signal in twenty below 1.59, so weak values seen in few replicates may be background. Also given: how often the same scFv was detected with the empty control strains. Of ten entries with the parent sequence, four were seen in most replicates (averages 0.34 to 2.37), three in one and three in none, so single entries are noisy. A sequence measured in both rounds can read differently, since the two assays cover different ranges.

* KSSQPVRYESSNKNSVA / WESERES / QQYHRLPLS [Ctrl] = nd (0 of 6 replicates; controls 0 of 18)
* KLSQSPLYESRNKNSVA / NASTRES / QQYHRLPLS [GP_Gen] = 0.04 (6 of 6 replicates; controls 1 of 18)
* KLQQSYLYESRNKNSVA / EASTRES / QQYHRLPLS [GP_Gen] = -0.27 (6 of 6 replicates; controls 0 of 18)
* KQSQEHLYESRNKNSVA / DASTREQ / QQYHRLPLS [GP_HC] = -0.24 (6 of 6 replicates; controls 0 of 18)
* GSSQSVLFESRNKNSVA / WASTRES / QQYYRHPLS [Ctrl] = 2.24 (1 of 6 replicates; controls 0 of 18)
* KLQQSELYESRNKNSVA / EASTRCS / QQYHRLPLS [GP_Gen] = 0.02 (6 of 6 replicates; controls 0 of 18)
* KSSSSVLTESRNKNSVA / WASTRES / QQYHRLPLW [Ctrl] = nd (0 of 6 replicates; controls 0 of 18)
* KLSQSMLYESRNKNNVA / AASDRES / QQYHRLPLS [GP_Gibbs] = -0.40 (6 of 6 replicates; controls 1 of 18)
* KSSTSWLYESRNKNSVA / GASARES / QQYHRLPLS [GP_HC] = -0.13 (6 of 6 replicates; controls 1 of 18)
* KLSQSHLYESRNKNSVA / EASTRES / QDYHRLPLS [GP_Gen] = 0.06 (6 of 6 replicates; controls 0 of 18)
* KLPQSWLYESRNKNSVA / SASQRES / QQYHRLPLS [GP_Gen] = -0.17 (6 of 6 replicates; controls 0 of 18)
* KSLQSQDYESRNKNSVA / HASTRED / QQYHCLPLS [GP_HC] = 0.99 (6 of 6 replicates; controls 1 of 18)
* KFQQSWLYESRNKNSVA / NASTRES / QQYHRLPLS [GP_Gen] = -0.48 (6 of 6 replicates; controls 1 of 18)
* KVSGSVLYESRNFNSIA / HASTRES / QQYHRLPLS [Ctrl] = 0.10 (6 of 6 replicates; controls 1 of 18)
* KSSCSYLYESENKNSVA / EASQRES / QQYHRLPLS [GP_HC] = 0.35 (6 of 6 replicates; controls 1 of 18)
* KLSQSEQYESRNKNSVA / NASQRES / QQYHRLPLS [GP_Gen] = -0.21 (6 of 6 replicates; controls 0 of 18)
* KLVNSTLYESRQKNSVA / WASTREE / QQYHRLPLS [GP_HC] = 0.98 (6 of 6 replicates; controls 0 of 18)
* KSSQSNLYESRNKNSVA / NASTRES / QQYHRLPLS [Ctrl] = -0.25 (6 of 6 replicates; controls 3 of 18)
* KVPQSVLYESRNKNSVA / NASQRES / QQYHRLPLS [GP_Gen] = -0.19 (6 of 6 replicates; controls 0 of 18)
* KSSQSVAYESRNKNSVA / DASTRES / QQYHRLPLS [Ctrl] = 0.14 (6 of 6 replicates; controls 1 of 18)
* KVSQSVLYESRNKNSVA / HASTRED / QQYHRLPLS [GP_HC] = 0.06 (6 of 6 replicates; controls 1 of 18)
* KFMQSVLYESRNLNNVA / HGSTRES / QQYHRLPLS [GP_Gibbs] = -0.27 (6 of 6 replicates; controls 2 of 18)
* KISQPVLYESENFNSVA / WASTRES / QQYHRTPLS [Ctrl] = 3.20 (3 of 6 replicates; controls 1 of 18)
* KLSQSVDYESRNKNSVA / NASTRED / QQYHRLPLS [GP_Gen] = -0.25 (6 of 6 replicates; controls 1 of 18)
* KSSQSVFYESRNKNSVA / FASTRED / QQYQRLPLS [Ctrl] = 2.10 (6 of 6 replicates; controls 0 of 18)
* KSSQSVLSESRNKNSVA / WASTRES / QQYHRLPLP [Ctrl] = nd (0 of 6 replicates; controls 0 of 18)
* KLSPSEQYESRNKNSVA / NASLRES / QQYHRLPLS [GP_Gibbs] = 0.03 (6 of 6 replicates; controls 1 of 18)
* KLQQSGLYESRNKNSVA / EASTRES / QQYHRLPLS [GP_Gen] = -0.01 (6 of 6 replicates; controls 2 of 18)
* KLVNSTLYESRQKNSVA / AASTRES / QQYHRLPLS [GP_HC] = 0.91 (6 of 6 replicates; controls 1 of 18)
* KLSQSELYESRNCNSVA / NASTRES / QQYHRLPLS [GP_Gen] = -0.07 (6 of 6 replicates; controls 1 of 18)
* KVSQSWLYESRQKNSVA / NASQRES / QQYHRLPLS [GP_Gen] = 0.43 (6 of 6 replicates; controls 2 of 18)
* KSSQSVPYESRNKNSVA / EASQRES / QQYHRLPLS [GP_Gen] = 0.00 (6 of 6 replicates; controls 1 of 18)
* KSSQSVLYESRNKNSVA / FASTRES / QQYHRLPLW [Ctrl] = nd (0 of 6 replicates; controls 0 of 18)
* KFSQSMLYESRNKNSVA / NASQRES / QQYHRLPLS [GP_Gen] = -0.18 (6 of 6 replicates; controls 1 of 18)
* KMSQSWLYESRNKNNVA / NASQRES / QQYHRLPLS [GP_Gen] = -0.51 (6 of 6 replicates; controls 3 of 18)
* KFSQSVLYESRNKNSVA / DASTRES / QQYVVLPLS [Ctrl] = -0.06 (6 of 6 replicates; controls 1 of 18)
* KSSQSVAMESRNSNSVA / DASTRES / QQYHRLPLS [GP_HC] = 0.47 (6 of 6 replicates; controls 2 of 18)
* KSSQSVWAESFNKNSVA / WASYRES / QQYHRLPLS [Ctrl] = 1.50 (5 of 6 replicates; controls 0 of 18)
* KLQQSDLYESRNKNSVA / DASTRES / QQYHRLPLS [GP_Gen] = -0.16 (6 of 6 replicates; controls 0 of 18)
* KLEQQTLYESRNKNSVA / WASTREE / QQYHRLPLS [GP_HC] = 1.18 (6 of 6 replicates; controls 0 of 18)
* KVSQSWLYESRNKNSVA / EASTRES / QDYHRLPLS [GP_Gen] = -0.33 (6 of 6 replicates; controls 1 of 18)
* KSQQSQLYESRNFNSVA / NASTRED / QQYHRLPLS [GP_HC] = -0.06 (6 of 6 replicates; controls 1 of 18)
* KLNQSVLYESRNKNSVA / HASTRED / QQYHRLPLS [GP_HC] = 0.04 (6 of 6 replicates; controls 0 of 18)
* KSQQSEPYESRNKNSVA / NASQRES / QQYHRLPLS [GP_Gen] = -0.46 (6 of 6 replicates; controls 1 of 18)
* KIAQSVLYESRNKNSVA / DASTRES / QQYHRLPLS [Ctrl] = 0.46 (6 of 6 replicates; controls 2 of 18)
* KSSQSVMYESRLCNSVA / NAVTRES / QQYHRLPLS [Ctrl] = 1.23 (5 of 6 replicates; controls 0 of 18)
* KLSMSVQYEARNKNSVA / EASTRED / QQYHRLPLS [GP_Gibbs] = -0.01 (6 of 6 replicates; controls 0 of 18)
* KSSISYLEESRNKNSVA / EASTREV / QQYHRLPLS [GP_HC] = -0.11 (6 of 6 replicates; controls 0 of 18)
* KFLQSWLYESRNKNSVA / HASTREQ / QQYHRLPLS [GP_HC] = 0.53 (6 of 6 replicates; controls 1 of 18)

Extract of 7 entries:

CDR-L1,CDR-L2,CDR-L3,group,"mean, log10 nM",detected,control signals
KSSQSVPYESRNKNSVA,EASQRES,QQYHRLPLS,GP_Gen,0.00,6/6,1/18
GSSQSVLFESRNKNSVA,WASTRES,QQYYRHPLS,Ctrl,2.24,1/6,0/18
KFSQSVLYESRNKNSVA,DASTRES,QQYVVLPLS,Ctrl,-0.06,6/6,1/18
KSSQSNLYESRNKNSVA,NASTRES,QQYHRLPLS,Ctrl,-0.25,6/6,3/18
KSQQSEPYESRNKNSVA,NASQRES,QQYHRLPLS,GP_Gen,-0.46,6/6,1/18
KVSQSWLYESRNKNSVA,EASTRES,QDYHRLPLS,GP_Gen,-0.33,6/6,1/18
KSSQSVAMESRNSNSVA,DASTRES,QQYHRLPLS,GP_HC,0.47,6/6,2/18